Literature values in patent US8329663B2, “Compositions and methods for the treatment of chronic infections” (priority 2008, dated 2012).

Conditions: second pKa value listed (polyprotic); in water

For `CCOC(=O)[C@H](CCc1ccccc1)N[C@@H](C)C(=O)N1CCC[C@H]1C(=O)O` [Enalapril], the “pKa (in H2O)” value is listed as 3.0, 5.4.
